The values that follow are results of earlier work, collected in patent US20240315989A1 (priority 2021, published 2024).

By UniProt entry, the sequences of proteins in these tests, tags left out.
UniProt Q99720, whole entry: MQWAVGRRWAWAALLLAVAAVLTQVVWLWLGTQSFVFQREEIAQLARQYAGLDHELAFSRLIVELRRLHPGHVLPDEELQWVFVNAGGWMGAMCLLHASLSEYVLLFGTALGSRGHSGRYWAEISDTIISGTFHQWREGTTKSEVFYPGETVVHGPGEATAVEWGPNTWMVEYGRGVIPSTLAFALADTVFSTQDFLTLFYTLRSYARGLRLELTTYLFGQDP
UniProt Q9R0C9, whole entry: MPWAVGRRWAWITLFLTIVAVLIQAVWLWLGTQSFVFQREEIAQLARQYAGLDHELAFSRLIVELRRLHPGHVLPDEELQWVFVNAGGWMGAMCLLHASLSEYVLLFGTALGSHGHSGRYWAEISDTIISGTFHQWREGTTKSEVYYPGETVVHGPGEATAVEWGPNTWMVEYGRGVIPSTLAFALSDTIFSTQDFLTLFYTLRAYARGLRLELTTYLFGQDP

The target in data set [1] is σ1 site (Homo sapiens, UniProt Q99720). The following applies: read-out: Affinity for σ1 Site (Ki or KD values); cited from earlier work.
In data set [2] the target is sigma-1 receptors (Rattus norvegicus, UniProt Q9R0C9). The following applies: cited from earlier work.
The subject of data set [3] is SARS-CoV-2. To be noted: cited from earlier work.

With `CN(C)CCCN1c2ccccc2Sc2ccc(Cl)cc21` [Chlorpromazine], in data set [1], the Ki was under 500 nM.
As to `CN(C)CCCC1(c2ccc(F)cc2)OCc2cc(C#N)ccc21` (stereo not shown) [citalopram], the inhibitory constant (Ki) in data set [2] was 404 nM.
Consider `CN(C)CCC[C@@]1(c2ccc(F)cc2)OCc2cc(C#N)ccc21` [escitalopram], for which, in data set [2], the Ki is 288 nM.
On to `CNCCC(Oc1ccc(C(F)(F)F)cc1)c1ccccc1` (stereo not shown) [fluoxetine], for which, in data set [3], the “Inhibiting SARS-CoV-2 replication at a concentration of” value was “at a concentration of 0.8 μg/ml”.
